The target in one assay is TLR8 (Homo sapiens, UniProt Q9NR97). The assay can be described thus: TLR8 cell based assay (HEK-BLUE-hTLR8, SEAP reporter linked to NF-κB activation). Conditions: read-out: TLR8 EC50; HEK-BLUE-hTLR8 cells, 24 h treatment, SEAP/QUANTI-Blue readout. How it is done: In this assay, the bioactivity of compound of formula Iw as measured using a cell based assay. The assay was performed in human embryonic kidney cells (HEK293) expressing TLR8 or other TLR family members such as TLR4, TLR7 and TLR9 (for selectivity screens). The activity of specific TLR agonists was assessed using the secretory embryonic alkaline phosphatase (SEAP) reporter gene that is linked to NF-κB activation in response to TLR stimulation. The SEAP activity was measured using the Quanti-Blue substrate (InvivoGen) after TLR agonist treatment.
(§1) The detailed experimental method is as follow:
HEK-BLUE-hTLR8 cell line was purchased from InvivoGen. The cells were cultured in Dulbecco's Modified Eagle's Media containing 4.5 g/L […] (Sigma-Aldrich) and 10% FBS. The cells were cultured at 37° C., 95% humidity and 5% CO2.
Test concentrations of the compounds ranged from 0.5 nM to 15 μM with 10 points. A known TLR8 agonist was added as positive control and 1 μl of DMSO was added as negative control.
The cells were prepared as follows: The cells were removed from the incubator and growth medium was discarded. The cells were gently rinsed with pre-warmed 10 ml PBS for a T-150 flask. 12 ml pre-warmed growth medium was added, and the cells were detached by tapping the flask. Cell clumps were dissociated by gently pipetting up and down. The cells were counted. Single cell suspension was prepared at 200,000 cells per ml in growth medium and 200 μl of the cell suspension (40,000 cells per well) were immediately added to each well of the plate. The final DMSO concentration of each well was 0.5%.
The cells were cultured and treated with the compounds at 37° C., 5% CO2 for 24 h.
(§2) 20 μL of the supernatant of each well were added to 180 μL of QUANTI-Blue, and the plates were incubated at 37° C. for 1.5 hour. Optical density was measured using a spectrophotometer at 650 nm (OD data). Activivation was calculated by using the equation below: Activivation %=(Compound OD mean value−DMSO OD mean value)/(positive control OD mean value−DMSO OD mean value)×100
(§3) The data were analyzed using the GraphPad to get EC50 values and fitting dose response curves of the compounds.

Amino acid sequences for entries named in this document (tags omitted). Residues count along the entry.
UniProt Q9NR97, 27-1041 limits assumed: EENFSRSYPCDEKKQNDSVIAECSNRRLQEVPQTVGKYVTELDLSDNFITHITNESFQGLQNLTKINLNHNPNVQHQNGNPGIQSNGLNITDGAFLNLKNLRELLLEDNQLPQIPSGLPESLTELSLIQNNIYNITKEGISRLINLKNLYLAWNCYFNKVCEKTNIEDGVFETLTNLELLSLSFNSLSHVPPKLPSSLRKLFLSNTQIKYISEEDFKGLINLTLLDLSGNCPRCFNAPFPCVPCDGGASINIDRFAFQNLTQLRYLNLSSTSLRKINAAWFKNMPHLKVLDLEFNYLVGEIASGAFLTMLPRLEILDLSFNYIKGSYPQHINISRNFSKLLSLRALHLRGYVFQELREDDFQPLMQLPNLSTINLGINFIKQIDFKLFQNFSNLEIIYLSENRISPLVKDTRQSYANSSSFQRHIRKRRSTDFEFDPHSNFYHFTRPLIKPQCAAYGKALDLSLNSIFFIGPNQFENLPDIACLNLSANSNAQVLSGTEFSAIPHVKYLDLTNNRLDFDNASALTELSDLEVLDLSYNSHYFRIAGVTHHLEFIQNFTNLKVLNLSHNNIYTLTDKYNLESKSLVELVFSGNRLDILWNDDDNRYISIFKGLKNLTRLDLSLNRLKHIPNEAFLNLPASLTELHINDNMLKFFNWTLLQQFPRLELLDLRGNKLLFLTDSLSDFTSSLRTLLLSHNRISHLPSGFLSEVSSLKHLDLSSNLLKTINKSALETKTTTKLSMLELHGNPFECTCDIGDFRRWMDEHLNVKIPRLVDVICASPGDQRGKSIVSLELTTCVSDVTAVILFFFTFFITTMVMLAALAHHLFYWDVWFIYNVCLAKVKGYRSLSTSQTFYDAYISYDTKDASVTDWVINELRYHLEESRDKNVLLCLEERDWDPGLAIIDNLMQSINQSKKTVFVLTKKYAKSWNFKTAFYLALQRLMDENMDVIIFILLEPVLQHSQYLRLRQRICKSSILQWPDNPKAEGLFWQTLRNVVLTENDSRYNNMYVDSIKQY
UniProt Q9NYK1, 27-1049 limits assumed: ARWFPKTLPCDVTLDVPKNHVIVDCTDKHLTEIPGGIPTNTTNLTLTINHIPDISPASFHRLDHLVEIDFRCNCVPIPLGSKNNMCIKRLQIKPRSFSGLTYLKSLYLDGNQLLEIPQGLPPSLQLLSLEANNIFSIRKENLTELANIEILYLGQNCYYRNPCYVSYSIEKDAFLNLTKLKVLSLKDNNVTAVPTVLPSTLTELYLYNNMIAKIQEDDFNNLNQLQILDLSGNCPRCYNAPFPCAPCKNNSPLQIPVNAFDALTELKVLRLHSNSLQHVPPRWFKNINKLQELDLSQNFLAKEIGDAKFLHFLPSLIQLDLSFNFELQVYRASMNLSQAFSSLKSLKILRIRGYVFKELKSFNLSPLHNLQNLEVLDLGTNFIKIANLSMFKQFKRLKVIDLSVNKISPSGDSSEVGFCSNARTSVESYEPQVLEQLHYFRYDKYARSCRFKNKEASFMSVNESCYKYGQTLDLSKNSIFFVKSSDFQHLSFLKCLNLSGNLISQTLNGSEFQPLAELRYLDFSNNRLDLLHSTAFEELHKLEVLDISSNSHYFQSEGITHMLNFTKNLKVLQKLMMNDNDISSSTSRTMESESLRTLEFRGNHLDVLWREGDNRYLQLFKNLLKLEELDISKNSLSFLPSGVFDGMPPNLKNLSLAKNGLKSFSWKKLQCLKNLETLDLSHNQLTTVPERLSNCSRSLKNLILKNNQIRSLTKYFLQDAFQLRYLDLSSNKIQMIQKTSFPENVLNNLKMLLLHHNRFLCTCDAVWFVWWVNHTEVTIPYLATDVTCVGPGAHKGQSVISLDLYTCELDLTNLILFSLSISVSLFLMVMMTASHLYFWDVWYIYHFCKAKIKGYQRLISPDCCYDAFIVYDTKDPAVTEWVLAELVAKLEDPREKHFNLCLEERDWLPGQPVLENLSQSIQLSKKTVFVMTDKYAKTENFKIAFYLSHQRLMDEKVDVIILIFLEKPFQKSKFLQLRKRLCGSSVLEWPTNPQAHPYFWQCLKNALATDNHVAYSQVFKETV

A further assay concerns the target TLR7 (Homo sapiens, UniProt Q9NYK1). Briefly: TLR7 cell based assay (HEK-BLUE-hTLR7, SEAP reporter linked to NF-κB activation). Conditions: read-out: TLR7 EC50; HEK-BLUE-hTLR7 cells, 24 hours treatment, SEAP/QUANTI-Blue readout. How it is done: In this assay, the bioactivity of compound of formula (I) was measured using a cell based assay. The assay was performed in human embryonic kidney cells (HEK293) expressing TLR7 or other TLR family members such as TLR4, and TLR9 (for selectivity screens). The activity of specific TLR agonists was assessed using the secretory embryonic alkaline phosphatase (SEAP) reporter gene that is linked to NF-κB activation in response to TLR stimulation. The SEAP activity was measured using the Quanti-Blue substrate (InvivoGen) after TLR agonist treatment.
as §1
HEK-BLUE-hTLR7 cell line was purchased from InvivoGen. The cells were cultured in Dulbecco's Modified Eagle's Media containing 4.5 g/L […] (Sigma-Aldrich) and 10% FBS. The cells were cultured at 37° C., 95% humidity and 5% CO2. […]
The cells were prepared as follows. […] The cells were counted. […]
as §2, §3

Each structure is given as a SMILES string. A value given as a limit tells only on which side of the number the result lay.

This is an account of results in patent publication US10669252B2, “Benzazepine derivative, preparation method, pharmaceutical composition and use thereof” (SHANGHAI DE NOVO PHARMATECH CO., LTD., priority 2016, dated 2020).

One may read the EC50 as the midpoint of the concentration-response curve.

For the compound `CCCN(CCC)C(=O)C1=Cc2ccc(-c3ccc4c(=O)n(CC)c5c(c4c3)CCC5)cc2N=C(N)C1`, on TLR8, the EC50 was 1000 to 10000 nM.

On to `CCCN(CCC)C(=O)C1=Cc2ccc(-c3ccc4c(=S)n(Cc5nc(OC)cc(OC)n5)ncc4c3)cc2N=C(N)C1`, for which the EC50 on TLR8 lay within 100 to 1000 nM.

On to `CCCN(CCC)C(=O)C1=Cc2ccc(-c3ccc(C(=O)N4CCCC4)cc3)cc2N=C(N)C1`, for which the EC50 at TLR8 lay in the range of 100 to 1000 nM.

For `CCCN(CCC)C(=O)C1=Cc2ccc(-c3ccc4c(=S)n(Cc5nccn5C)ccc4c3)cc2N=C(N)C1`, the values for the EC50 at TLR8 and on TLR7 were < 100 nM and > 50 µM, respectively.

Take `CCCN(CCC)C(=O)C1=Cc2ccc(-c3ccc4c(=S)n(Cc5nc(OC)cc(OC)n5)ccc4c3)cc2N=C(N)C1`: at TLR8, the EC50 was 100 to 1000 nM.

As for `CCCN(CCC)C(=O)C1=Cc2ccc(-c3ccc4c(=O)n(CC(C)(C)C)ccc4c3)cc2N=C(N)C1`, at TLR8, the EC50 lay within 1000 to 10000 nM.

Take `CCCN(CCC)C(=O)C1=Cc2ccc(-c3ccc4c(=S)n(Cc5ncccn5)ccc4c3)cc2N=C(N)C1`: at TLR8, the EC50 was < 100 nM.
